Ki data for one compound are collected here from ChEMBL document CHEMBL1130595, “New generation dopaminergic agents. 5. Heterocyclic bioisosteres that exploit the 3-OH-N1-phenylpiperazine dopaminergic template” (Bioorg Med Chem Lett, 1998).

Amino acid sequences for entries named in this document (tags omitted).
UniProt P14416, whole entry: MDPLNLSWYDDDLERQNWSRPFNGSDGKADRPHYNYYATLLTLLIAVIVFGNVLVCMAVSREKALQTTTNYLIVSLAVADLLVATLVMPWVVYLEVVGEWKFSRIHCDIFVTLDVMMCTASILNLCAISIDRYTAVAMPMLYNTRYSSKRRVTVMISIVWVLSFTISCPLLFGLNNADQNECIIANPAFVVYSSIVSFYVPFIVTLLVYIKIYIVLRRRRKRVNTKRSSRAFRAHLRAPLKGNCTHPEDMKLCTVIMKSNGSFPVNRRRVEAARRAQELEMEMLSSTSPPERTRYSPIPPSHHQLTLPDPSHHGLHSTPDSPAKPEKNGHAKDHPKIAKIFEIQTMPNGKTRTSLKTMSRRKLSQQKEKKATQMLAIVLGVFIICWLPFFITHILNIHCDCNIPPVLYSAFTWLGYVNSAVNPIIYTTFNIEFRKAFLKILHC
UniProt P61169, whole entry: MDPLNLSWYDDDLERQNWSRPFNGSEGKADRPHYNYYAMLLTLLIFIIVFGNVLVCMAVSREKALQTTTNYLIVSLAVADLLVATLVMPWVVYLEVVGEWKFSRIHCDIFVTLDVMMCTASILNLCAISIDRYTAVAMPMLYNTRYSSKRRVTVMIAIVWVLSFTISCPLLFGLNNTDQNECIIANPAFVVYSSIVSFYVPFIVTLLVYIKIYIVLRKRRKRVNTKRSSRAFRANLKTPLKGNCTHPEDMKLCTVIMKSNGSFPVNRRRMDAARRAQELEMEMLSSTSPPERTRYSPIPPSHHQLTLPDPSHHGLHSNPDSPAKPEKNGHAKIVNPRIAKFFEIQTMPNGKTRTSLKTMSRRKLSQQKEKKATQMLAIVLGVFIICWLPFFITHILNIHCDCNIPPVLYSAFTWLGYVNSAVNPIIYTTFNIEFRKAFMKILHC

Structures are written as SMILES.

Assay [1] concerns the target D(2) dopamine receptor (Homo sapiens, UniProt P14416). Nature of the assay: Affinity towards human Dopamine receptor D2 expressed in CHO cells using [3H]spiperone. Format: cell-based.
Assay [2] addresses T1, D(2) dopamine receptor (Rattus norvegicus, UniProt P61169).
Assay [3] concerns the target T1, D(2) dopamine receptor. This is another data set of the same source.

As to `O=c1[nH]c2cccc(N3CCN(Cc4ccccc4)CC3)c2[nH]1`, the inhibitory constant (Ki) in assay [1] turned out to be 87.3 nM; in assay [2], 4.2 nM; in assay [3] it was 45.8 nM.
